These results are taken from ChEMBL document CHEMBL5512692, “Colloidal Aggregation Confounds Cell-Based Covid-19 Antiviral Screens” (J Med Chem, 2024).

This assay can be described thus: Inhibition of porcine heart MDH using oxaloacetic acid as substrate preincubated for 5 mins followed by substrate and […] addition and measured for 80 sec by absorbance based analysis. More on the design: species or system Sus scrofa.

Usually IC50 stands for the concentration at which inhibition is half-maximal. Read a low IC50 as greater potency in that assay. Regarding `O=C(O[C@@H]1Cc2c(O)cc(O)cc2O[C@@H]1c1cc(O)c(O)c(O)c1)c1cc(O)c(O)c(O)c1` [EPIGALOCATECHIN GALLATE], the IC50 was 5.15 µM.
